Source: ChEMBL document CHEMBL1667830, “Non-oxime inhibitors of B-Raf(V600E) kinase” (Bioorg Med Chem Lett, 2011)

Sequences of proteins named here, by UniProt entry; tags and fusion partners are left off. Residues count along the entry.
UniProt P15056, 2-766 V600E limits assumed: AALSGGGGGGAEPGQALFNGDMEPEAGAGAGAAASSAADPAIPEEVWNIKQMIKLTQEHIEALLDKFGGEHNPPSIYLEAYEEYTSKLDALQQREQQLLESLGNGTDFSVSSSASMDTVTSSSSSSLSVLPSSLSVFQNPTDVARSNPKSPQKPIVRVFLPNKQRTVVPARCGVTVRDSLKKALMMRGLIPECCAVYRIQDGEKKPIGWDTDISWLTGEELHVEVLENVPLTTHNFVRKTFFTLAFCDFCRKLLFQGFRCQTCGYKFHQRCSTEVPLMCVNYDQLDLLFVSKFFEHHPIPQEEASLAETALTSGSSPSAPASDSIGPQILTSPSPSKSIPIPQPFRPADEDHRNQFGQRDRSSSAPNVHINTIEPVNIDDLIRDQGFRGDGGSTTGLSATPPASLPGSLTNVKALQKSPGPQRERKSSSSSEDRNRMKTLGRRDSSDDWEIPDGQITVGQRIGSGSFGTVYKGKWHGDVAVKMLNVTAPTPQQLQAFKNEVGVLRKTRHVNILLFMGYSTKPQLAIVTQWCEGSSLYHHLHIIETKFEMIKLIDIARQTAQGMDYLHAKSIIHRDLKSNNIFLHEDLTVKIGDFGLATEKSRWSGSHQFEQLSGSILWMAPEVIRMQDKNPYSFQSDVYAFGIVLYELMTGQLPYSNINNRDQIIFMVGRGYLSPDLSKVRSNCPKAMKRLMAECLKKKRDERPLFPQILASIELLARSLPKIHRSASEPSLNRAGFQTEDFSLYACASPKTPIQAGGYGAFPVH

Molecular target: Serine/threonine-protein kinase B-raf (Homo sapiens, UniProt P15056, V600E)
Assay: Inhibition of B-Raf V600E mutant

IC50: 1.4 nM
SMILES: O=C(Nc1ccncn1)c1oc2cnccc2c1Nc1ccc2c(O)cccc2c1
